Literature values, collected in US20060058225A1, “Used of inhibitors of phospholipase a2 for the treatment, prevention or diagnosis of neural inflammatory or demyelinating disease” (McGill University, priority 2002, published 2006).

Test system: EAE
Settings: mice

B1: IFNβ: interferon beta (protein, UniProt P01574 22-187, looked up)
Interferon beta: MSYNLLGFLQRSSNFQCQKLLWQLNGRLEYCLKDRMNFDIPEEIKQLQQFQKEDAALTIYEMLQNIFAIFRQDSSSTGWNETIVENLLANVYHQINHLKTVLEEKLEKEDFTRGKLMSSLHLKRYYGRILHYLKAKEYSHCAWTIVRVEILRNFYFINRLTGYLRN
**Q.** Which relapse/mouse (controls 2.17) does the source give for B1 here?
**A.** 1.17

**Q.** What about the “mean clinical score, start of course” value (controls 3.5) of the same molecule?
**A.** 3.0

**Q.** What about the “mean clinical score, end of course” value (controls 3.8) of the same molecule?
**A.** 2.5
